Literature values, collected in publication PMC2908260 (Journal of nuclear medicine : official publication, Society …, 2010).

Details: other ^18F-labeled octreotide analogues

In the case of [^18F]fluoropropionyl octreotide, the “log P” value is given as −0.07 ± 0.01.
